Amino acid sequences for entries named in this document (tags omitted). A change or cut given only in a name is not applied to a line headed by its entry.
UniProt P0A0K8: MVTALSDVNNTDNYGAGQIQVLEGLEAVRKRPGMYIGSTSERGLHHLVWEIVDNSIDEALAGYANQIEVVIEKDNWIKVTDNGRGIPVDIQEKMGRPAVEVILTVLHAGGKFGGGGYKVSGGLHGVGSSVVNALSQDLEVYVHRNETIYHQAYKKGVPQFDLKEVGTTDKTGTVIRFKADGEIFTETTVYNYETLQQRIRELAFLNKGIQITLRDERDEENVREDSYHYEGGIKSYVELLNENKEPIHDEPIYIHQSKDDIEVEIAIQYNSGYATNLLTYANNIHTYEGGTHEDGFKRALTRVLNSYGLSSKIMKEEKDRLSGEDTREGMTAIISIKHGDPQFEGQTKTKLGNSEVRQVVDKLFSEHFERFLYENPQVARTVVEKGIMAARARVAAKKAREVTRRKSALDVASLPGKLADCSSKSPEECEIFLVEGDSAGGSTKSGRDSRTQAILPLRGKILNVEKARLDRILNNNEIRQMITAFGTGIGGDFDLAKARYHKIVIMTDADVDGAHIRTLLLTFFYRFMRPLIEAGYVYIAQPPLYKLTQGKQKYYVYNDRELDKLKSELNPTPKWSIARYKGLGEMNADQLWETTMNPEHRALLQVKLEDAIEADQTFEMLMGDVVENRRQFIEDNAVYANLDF
UniProt P20831: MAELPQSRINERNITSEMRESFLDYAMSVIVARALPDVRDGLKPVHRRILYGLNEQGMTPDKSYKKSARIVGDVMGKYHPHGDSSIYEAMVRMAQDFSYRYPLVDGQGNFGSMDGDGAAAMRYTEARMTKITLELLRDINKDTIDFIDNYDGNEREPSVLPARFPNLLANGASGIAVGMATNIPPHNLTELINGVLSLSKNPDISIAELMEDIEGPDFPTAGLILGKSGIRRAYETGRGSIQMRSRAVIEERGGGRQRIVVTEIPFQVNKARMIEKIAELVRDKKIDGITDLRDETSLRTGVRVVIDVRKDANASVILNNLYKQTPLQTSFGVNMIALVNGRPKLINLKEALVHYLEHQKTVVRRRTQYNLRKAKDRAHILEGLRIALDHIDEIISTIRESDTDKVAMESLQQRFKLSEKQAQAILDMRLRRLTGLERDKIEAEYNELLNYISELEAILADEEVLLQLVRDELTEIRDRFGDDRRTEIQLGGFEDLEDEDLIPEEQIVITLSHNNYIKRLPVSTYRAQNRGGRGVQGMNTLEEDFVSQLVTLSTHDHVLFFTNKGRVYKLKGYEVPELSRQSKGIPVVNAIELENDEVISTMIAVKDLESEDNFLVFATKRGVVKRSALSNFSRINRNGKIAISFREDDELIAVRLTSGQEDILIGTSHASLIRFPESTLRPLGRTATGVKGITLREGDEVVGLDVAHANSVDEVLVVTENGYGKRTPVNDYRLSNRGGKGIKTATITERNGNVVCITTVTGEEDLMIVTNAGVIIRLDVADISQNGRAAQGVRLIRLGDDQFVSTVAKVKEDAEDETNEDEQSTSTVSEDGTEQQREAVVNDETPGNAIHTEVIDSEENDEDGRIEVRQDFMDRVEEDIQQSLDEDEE

In ChEMBL document CHEMBL3351553 (J Med Chem, 2014):

Target: DNA gyrase (Staphylococcus aureus, UniProt P0A0K8+P20831)
Test: Inhibition of Staphylococcus aureus DNA gyrase assessed as reduction in enzyme-catalyzed supercoiling of relaxed circular pBR322 DNA by agarose gel electrophoresis
Assay type: protein-complex assay

| Compound | IC50 [µM] |
| --- | --- |
| CC(C)(C)c1ccc(C(N)CCCN2CCC(C(O)(c3ccccc3)c3ccccc3)CC2)cc1 (stereo not drawn) | > 500 |
| CC(C)(C)c1ccc(C(=O)CN2CCC(C(O)(c3ccccc3)c3ccccc3)CC2)cc1 | 73 |
| CC(C)(C)c1ccc(C(=O)CCCN2CCC(C(O)(c3ccccc3)c3ccccc3)CC2)cc1 [TERFENADONE] | 93 |
